This assay has as its target Nuclear receptor coactivator 1 (Homo sapiens) (UniProt Q15788). The assay can be described thus: NCOA1-driven reporter transcription inhibition – cell-based, luminescence, late-stage follow-up (AID 651796). The following applies: cell-based SRC1 reporter.

By UniProt entry, the sequences of proteins in these tests, tags left out. Where a name states a change or a piece, a line headed by the entry shows the natural chain unless it says otherwise.
UniProt Q15788: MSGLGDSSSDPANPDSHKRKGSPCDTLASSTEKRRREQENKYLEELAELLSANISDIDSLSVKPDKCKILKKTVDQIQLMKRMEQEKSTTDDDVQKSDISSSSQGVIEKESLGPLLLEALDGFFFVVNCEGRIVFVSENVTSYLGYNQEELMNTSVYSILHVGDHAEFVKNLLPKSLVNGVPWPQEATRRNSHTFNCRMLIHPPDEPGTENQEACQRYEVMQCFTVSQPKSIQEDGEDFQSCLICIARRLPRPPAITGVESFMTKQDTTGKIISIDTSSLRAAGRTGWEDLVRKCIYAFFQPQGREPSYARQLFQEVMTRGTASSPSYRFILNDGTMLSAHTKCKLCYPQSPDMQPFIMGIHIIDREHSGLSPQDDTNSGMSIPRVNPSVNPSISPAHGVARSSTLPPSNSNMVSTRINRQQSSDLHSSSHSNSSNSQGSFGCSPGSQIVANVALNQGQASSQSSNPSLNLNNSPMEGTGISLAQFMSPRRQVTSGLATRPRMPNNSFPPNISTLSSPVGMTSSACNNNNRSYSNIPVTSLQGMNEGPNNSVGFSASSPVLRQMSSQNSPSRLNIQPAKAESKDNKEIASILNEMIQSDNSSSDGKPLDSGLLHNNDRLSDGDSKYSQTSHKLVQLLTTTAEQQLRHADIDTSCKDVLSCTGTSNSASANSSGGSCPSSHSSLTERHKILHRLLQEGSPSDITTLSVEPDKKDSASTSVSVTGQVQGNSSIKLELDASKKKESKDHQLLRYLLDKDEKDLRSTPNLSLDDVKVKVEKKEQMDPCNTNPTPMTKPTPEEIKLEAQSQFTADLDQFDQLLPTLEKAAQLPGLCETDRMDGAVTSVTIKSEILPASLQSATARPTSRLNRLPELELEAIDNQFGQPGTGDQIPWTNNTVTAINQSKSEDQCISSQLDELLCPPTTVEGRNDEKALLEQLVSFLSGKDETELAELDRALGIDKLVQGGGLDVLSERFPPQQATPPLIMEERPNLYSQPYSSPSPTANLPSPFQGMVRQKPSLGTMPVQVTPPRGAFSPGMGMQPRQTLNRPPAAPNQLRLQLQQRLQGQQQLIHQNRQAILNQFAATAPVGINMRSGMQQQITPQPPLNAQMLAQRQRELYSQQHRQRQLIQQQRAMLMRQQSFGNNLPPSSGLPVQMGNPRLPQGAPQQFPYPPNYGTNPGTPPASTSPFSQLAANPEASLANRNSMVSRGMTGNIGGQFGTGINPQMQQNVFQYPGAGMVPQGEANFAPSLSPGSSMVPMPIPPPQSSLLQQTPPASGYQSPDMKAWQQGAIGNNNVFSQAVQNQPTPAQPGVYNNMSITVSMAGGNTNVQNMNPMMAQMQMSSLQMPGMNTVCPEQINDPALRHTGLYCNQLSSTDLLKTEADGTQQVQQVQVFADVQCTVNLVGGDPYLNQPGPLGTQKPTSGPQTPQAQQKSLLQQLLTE

Calls of active or inactive are those of the source. No rule for the calls is given here.

As to `COc1cc([C@@H]2c3cc4c(cc3C(OC3OC5COC(C)OC5C(O)C3O)C3COC(=O)[C@@H]32)OCO4)cc(OC)c1O` (stereo partly specified), the IC50 entry is “inactive”.

(Values after PubChem BioAssay AID651796 (The Scripps Research Institute Molecular Screening Center, 2012).)
